The nature of this series: Optical characteristics (absorption, fluorescence, quantum yield) in phosphate buffer, Table 2. To be noted: phosphate buffer (pH 9).

For 2-Me Ge-TM, the Φfl turned out to be 0.47, the λabs came to 572 nm and the λfl is given as 590 nm.
